Earlier results, collected in patent US8685443B2, “Sequestering subunit and related compositions and methods” (Alpharma Pharmaceuticals LLC, priority 2002, dated 2014).

Test system: opioid receptors
Conditions: cited from earlier work

In the case of C=CCN1CC[C@]23c4c5ccc(O)c4O[C@H]2C(=O)CC[C@@]3(O)[C@H]1C5 [naloxone], the “effect on morphine-like opioid agonist” value (0.4-0.8 mg intramuscularly or intravenously in man) is given as “prevent or promptly reverse the effects of morphine-like opioid agonist” and the “block of the effect of heroin” value (one mg intravenously against 25 mg of heroin) is given as “block completely”.
